IC50 data for two molecules are collected here from ChEMBL document CHEMBL1148359, “Design, synthesis, and biological evaluation of 2,4-diamino-5-methyl-6-substituted-pyrrolo[2,3-d]pyrimidines as dihydrofolate reductase inhibitors” (J Med Chem, 2004).

Assay [1] deals with T1, Dihydrofolate reductase (Mycobacterium avium, UniProt O30463).
T1 sequence (O30463 whole entry): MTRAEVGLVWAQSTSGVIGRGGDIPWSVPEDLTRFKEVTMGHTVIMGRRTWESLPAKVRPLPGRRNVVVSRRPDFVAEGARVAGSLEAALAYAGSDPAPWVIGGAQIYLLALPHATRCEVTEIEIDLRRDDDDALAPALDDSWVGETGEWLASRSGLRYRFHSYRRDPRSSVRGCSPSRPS
The assay is described as follows: Inhibitory concentration against Dihydrofolate reductase from Mycobacterium avium (Mycobacterium avium).

Assay [2] has as its target T2, Dihydrofolate reductase (Pneumocystis carinii, UniProt P16184).
T2 sequence (P16184 whole entry): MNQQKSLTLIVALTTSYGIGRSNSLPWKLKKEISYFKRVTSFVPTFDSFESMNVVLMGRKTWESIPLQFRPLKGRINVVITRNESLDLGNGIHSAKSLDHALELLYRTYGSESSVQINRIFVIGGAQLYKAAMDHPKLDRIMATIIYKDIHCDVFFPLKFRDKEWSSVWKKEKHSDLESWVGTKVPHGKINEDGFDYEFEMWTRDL
The assay is described as follows: Inhibition of Dihydrofolate reductase from Pneumocystis carinii (Pneumocystis carinii).

Regarding `COc1ccc(OC)c(Sc2[nH]c3nc(N)nc(N)c3c2C)c1`, the concentration for half-maximal inhibition (IC50) (usually the concentration that gives 50% inhibition) against Dihydrofolate reductase [1] is 0.1 µM; against Dihydrofolate reductase [2], 14.6 µM. Take `Cc1c(Sc2cccc(Cl)c2)[nH]c2nc(N)nc(N)c12`: the IC50 against Dihydrofolate reductase [2] was 42.9 µM. In other words, the double-digit micromolar range.
